The values below come from patent publication US20230242601A1, “PEPTIDE USED TO PREVENT OR TREAT SYNUCLEINOPATHY” (TOHOKU UNIVERSITY, priority 2020, published 2023).

This test concerns the target FABP3 fused with a His-tag at the N-terminus. The test is described as follows: QCM, analyte added to immobilised FABP3.

Turning to “wild-type α-synuclein (full length) (from UniProt P37840 1-140)”, the Kd – broadly, the constant that tells how readily two partners part at equilibrium – was determined as 0.4 nM.
